One experiment has as its system SK-Br-3 (Her2+) cells. As to the kind of experiment: In vitro cytotoxicity, CellTiter-Glo cell viability, SK-Br-3. It counts as cell-based. To be noted: 72 h, 0.001-100 nM. On the procedure:
(§1) SK-Br-3 (Her2+) and MDA-MB-231 (Her2−) cells were cultured in McCoy's 5A medium (Gibco) and DMEM (Gibco) supplemented with 10% FBS (Invitrogen) respectively. The cells were plated in 96-well plates with 5000 cells per well and were incubated for 24 hours at 37° C. and 5% CO2. After remove of the culture medium, the antibody samples (trastuzumab, trastuzumab-G2F-FAzP4MMAE and trastuzumab-G2F-FAzDBCO-MMAE) were added to culturing medium to a series of final concentrations (100 nM, 10 nM, 1 nM, 0.5 nM, 0.1 nM, 0.05 nM, 0.01 nM, 0.001 nM and 0 nM) and added to the plates respectively. The cells were incubated for 72 h at 37° C. and 5% CO2 and subjected to a CellTiter-Glo® Luminescent Cell Viability Assay (Promega) to measure the cell viability.
(§2) SK-Br-3 (Her2+) and BT-474(Her2+) were cultured in RPMI 1640 medium supplemented with 10% FBS (Gibco). MDA-MB-231 (Her2−) cells were cultured in DMEM (Gibco) supplemented with 10% FBS (Gibco). The cells were plated in 96-well plates with 5000 cells per well and were incubated for 24 hours at 37° C. and 5% CO2. […] The cells were incubated for 72 h at 37° C. and 5% CO2 and subjected to a CellTiter-Glo® Luminescent Cell Viability Assay (Promega) to measure the cell viability.
SK-Br-3 (Her2+), NCI-N87(Her2+) and BT-474(Her2+) were cultured in RPMI 1640 medium supplemented with 10% FBS (Gibco). […]
A general note: Cellular ATP, detected with luciferase, serves as a proxy for viable cell number.

The next experiment has as its system BT-474 (Her2+) cells. Kind of experiment: In vitro cytotoxicity, CellTiter-Glo cell viability, BT-474. The class given is cell-based. The following applies: 72 h, 0.001-100 nM. The protocol:
as §2
(§3) SK-Br-3 (Her2+), NCI-N87(Her2+) and BT-474(Her2+) were cultured in RPMI 1640 medium supplemented with 10% FBS (Gibco). MDA-MB-231 (Her2−) cells were cultured in DMEM (Gibco) supplemented with 10% FBS (Gibco). The cells were plated in 96-well plates with 5000 cells per well and were incubated for 24 hours at 37° C. and 5% CO2. After removing of the culture medium, the sample was added to the culture medium to a series of final concentrations (100 nM, 10 nM, 1 nM, 0.5 nM, 0.1 nM, 0.05 nM, 0.01 nM, 0.001 nM and 0 nM) and added to the plates respectively.

The subject of another experiment is MDA-MB-231 (Her2−) cells. Kind of experiment: In vitro cytotoxicity, CellTiter-Glo cell viability, MDA-MB-231 as Her2-negative line. It counts as cell-based. On the procedure:
as §1, §2, §3
(§4) NCI-N87 (Her2+) cells were cultured in RPMI 1640 medium supplemented with 10% FBS (Gibco). MDA-MB-231 (Her2−) cells were cultured DMEM (Gibco) supplemented with 10% FBS (Gibco). The cells were plated in 96-well plates with 3000 cells per well and incubated for 24 hours at 37° C. and 5% CO2. […] The cells were incubated for 6 days at 37° C. and 5% CO2 and subjected to a CellTiter-Glo® Luminescent Cell Viability Assay (Promega) to measure the cell viability.

In a further experiment the test system is NCI-N87 (Her2+) cells. As to the kind of experiment: In vitro cytotoxicity, CellTiter-Glo cell viability, NCI-N87. It counts as cell-based, human. To be noted: 6 days, 0.00001-100 nM. On the procedure:
as §3, §4

Data on five substances can be found in US20230235082A1, “SITE-SPECIFIC ANTIBODY CONJUGATES AND THE METHODS FOR PREPARATION OF THE SAME” (GLYCO-THERAPY BIOTECHNOLOGY CO., LTD., priority 2020, published 2023).

For “trastuzumab-(Galβ1,4)GlcNAc-FAmAzDBCO-MMAE”, the “killing cells (cell viability)” value is given as “high potent of killing cells” with SK-Br-3 (Her2+) cells; “high potent of killing cells” with BT-474 (Her2+) cells; “but not” in the experiment on MDA-MB-231 (Her2−) cells (72 h, 0.001-100 nM).
Regarding trastuzumab-G2F-FAmDM4, the “killing cells (cell viability)” value is recorded as “high potent of killing cells” in the experiment on NCI-N87 (Her2+) cells and “but not” in the experiment on MDA-MB-231 (Her2−) cells (6 days, 0.00001-100 nM).
Regarding trastuzumab-G2F-FAmAzP4DXd, the “killing cells (cell viability)” value is “high potent of killing cells” with NCI-N87 (Her2+) cells and “but not” with MDA-MB-231 (Her2−) cells (6 days, 0.00001-100 nM).
For “trastuzumab-(Galβ1,4)GlcNAc-FAmSucMMAE: "trastuzumab-(Galβ1,4)GlcNAc ... was incubated with GDP-Fuc derivatives" (GDP-FAmSucMMAE) "and Hp1,3-FucT"; "found as 148634 Da, DAR2"” the same measures were “high potent of killing cells” and “but not”.
Regarding trastuzumab-G2F-FAmAzDBCO-MMAF, the “killing cells (cell viability)” value in the experiment on SK-Br-3 (Her2+) cells is “high potent of killing cells”; in the experiment on BT-474 (Her2+) cells, “high potent of killing cells”; in the experiment on MDA-MB-231 (Her2−) cells (72 h, 0.001-100 nM), “but not”.
